Broadly, the pKi is the negative decadic logarithm of the Ki, by convention in mol/L.

Sequences of proteins named here, by UniProt entry; tags and fusion partners are left off.
UniProt O43613, whole entry: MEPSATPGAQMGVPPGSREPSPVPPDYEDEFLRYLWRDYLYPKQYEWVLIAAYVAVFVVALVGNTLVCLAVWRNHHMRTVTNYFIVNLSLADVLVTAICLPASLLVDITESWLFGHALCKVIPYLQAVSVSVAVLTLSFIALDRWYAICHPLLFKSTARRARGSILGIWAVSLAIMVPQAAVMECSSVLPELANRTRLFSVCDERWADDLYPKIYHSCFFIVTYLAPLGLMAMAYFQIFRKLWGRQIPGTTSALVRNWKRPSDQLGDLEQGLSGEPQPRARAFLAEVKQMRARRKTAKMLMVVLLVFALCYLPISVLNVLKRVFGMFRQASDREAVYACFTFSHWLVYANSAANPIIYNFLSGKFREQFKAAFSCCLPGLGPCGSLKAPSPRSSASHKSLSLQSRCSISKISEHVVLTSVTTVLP

pKi: −log10 of the molar value.

The target of this experiment is Orexin/Hypocretin receptor type 1 (Homo sapiens, UniProt O43613). As to the kind of experiment: Binding affinity to orexin receptor 1 (unknown origin).

For `CNC(=O)[C@@H](c1ccccc1)N1CCc2cc(OC)c(OC)cc2[C@@H]1CCc1ccc(C(F)(F)F)cc1` [ALMOREXANT], the pKi is 7.89.

Values taken from ChEMBL document CHEMBL2412971, “Selective orexin receptor antagonists” (Bioorg Med Chem Lett, 2013).
